Antibody variant affinities, Ab-14 light chain, assay 1

All variants were tested on one target, the spike HR2 peptide PDVDLGDISGINAS (SARS-CoV-2).

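The parent was found by panning a naive human phage display library on the peptide. Variants in AAYL50 differ from the parent at up to three CDR positions; double and triple changes were sampled at random. The assay is AlphaSeq: two haploid yeast populations carry antibody and antigen on their surface. After mating in shaken culture at 30 °C for 16 h, diploids were selected and their barcode pairs sequenced. Each replicate has its own calibration line, from reference interactions of the BCL2 family. The assay was run in three technical replicates.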

Parent scFv Ab-14: VH joined to VL by three GGGGS repeats. Changes lie in the light chain CDRs alone.
VH: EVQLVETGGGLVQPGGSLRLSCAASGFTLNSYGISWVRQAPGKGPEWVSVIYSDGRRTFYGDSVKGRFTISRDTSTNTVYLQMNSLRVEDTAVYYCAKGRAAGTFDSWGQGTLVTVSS
VL: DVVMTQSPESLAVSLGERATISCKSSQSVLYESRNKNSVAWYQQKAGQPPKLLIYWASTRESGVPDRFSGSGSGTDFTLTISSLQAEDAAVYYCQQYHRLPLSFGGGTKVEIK

Variants are written as CDR1, CDR2 and CDR3 of the light chain (limits as in the source). Parent: KSSQSVLYESRNKNSVA, WASTRES, QQYHRLPLS.
Scale: log10 of Kd in nM, estimated from mating counts; low values are strong binders.
Replicates are averaged; those with no signal do not enter the mean.
Where no diploid with the target was found in that replicate, the entry reads "ND": below detection, most likely a poor binder, though not proof of it.
Three control strains display no target. For library AAYL50, 18% of the pairings with them gave a signal, with a median of 4.19 and one signal in twenty below 2.99, so weak values seen in few replicates may be background. Also given: how often the same scFv was detected with the empty control strains, with their mean in brackets.
In this assay the parent's reference entry averaged 0.65; its copy inside this library read 1.68.

{"CDR-L1": "WSSQSVLYEQRNKNSVA", "CDR-L2": "WASTRES", "CDR-L3": "QQYHRLPLS", "log10 Kd (nM) by replicate": "1.75 1.52 2.53", "mean, log10 nM": "1.93", "empty controls": "1 of 9 (4.88)"}
{"CDR-L1": "KSSLSVLYESRLKNSVA", "CDR-L2": "WASTREF", "CDR-L3": "QQYHRLPLS", "log10 Kd (nM) by replicate": "3.02 2.68 3.00", "mean, log10 nM": "2.90", "empty controls": "3 of 9 (4.58)"}
{"CDR-L1": "KSSQSVLYEFRNKNSVA", "CDR-L2": "WASTRES", "CDR-L3": "CQYHRLPQS", "log10 Kd (nM) by replicate": "ND ND ND", "mean, log10 nM": "ND", "empty controls": "1 of 9 (3.81)"}
{"CDR-L1": "KSMQSVEYESRNKNSVA", "CDR-L2": "WRSTRES", "CDR-L3": "QQYHRLPLS", "log10 Kd (nM) by replicate": "5.22 4.08 ND", "mean, log10 nM": "4.65", "empty controls": "4 of 9 (4.18)"}
{"CDR-L1": "KSSQSVLYESRNKNSVA", "CDR-L2": "AASTRES", "CDR-L3": "QQYHHLPLE", "log10 Kd (nM) by replicate": "0.20 0.13 0.11", "mean, log10 nM": "0.15", "empty controls": "0 of 9"}
{"CDR-L1": "KSSQSVLYESRNKNSVA", "CDR-L2": "WATQRES", "CDR-L3": "QQYHRPPLS", "log10 Kd (nM) by replicate": "2.02 2.41 2.03", "mean, log10 nM": "2.15", "empty controls": "4 of 9 (3.51)"}
{"CDR-L1": "KSSQSCLYESRNKNSVA", "CDR-L2": "WASTRES", "CDR-L3": "QQYKRYPLS", "log10 Kd (nM) by replicate": "3.47 2.26 3.35", "mean, log10 nM": "3.03", "empty controls": "1 of 9 (4.51)"}
{"CDR-L1": "KSSQIVLYESRVKNSVA", "CDR-L2": "WASTRES", "CDR-L3": "QQYHRHPLS", "log10 Kd (nM) by replicate": "1.92 2.17 1.87", "mean, log10 nM": "1.99", "empty controls": "2 of 9 (4.60)"}
{"CDR-L1": "KESFSVLYESRNKNSVA", "CDR-L2": "WASTRES", "CDR-L3": "QQYHRLPLQ", "log10 Kd (nM) by replicate": "ND ND 5.27", "mean, log10 nM": "5.27", "empty controls": "1 of 9 (4.17)"}
{"CDR-L1": "KSSASVLYESRNKNSVA", "CDR-L2": "WASTMYS", "CDR-L3": "QQYHRLPLS", "log10 Kd (nM) by replicate": "4.34 ND 3.45", "mean, log10 nM": "3.90", "empty controls": "2 of 9 (3.60)"}
{"CDR-L1": "KSSQSVAYESRNKNSVA", "CDR-L2": "WLSTRES", "CDR-L3": "QQIHRLPLS", "log10 Kd (nM) by replicate": "ND ND ND", "mean, log10 nM": "ND", "empty controls": "1 of 9 (2.75)"}
{"CDR-L1": "KSSQSVLYESRNKNSVA", "CDR-L2": "WASTRPS", "CDR-L3": "YQPHRLPLS", "log10 Kd (nM) by replicate": "ND 5.44 ND", "mean, log10 nM": "5.44", "empty controls": "4 of 9 (4.54)"}
{"CDR-L1": "KSSQSVNIESRNKNSVA", "CDR-L2": "WTSTRES", "CDR-L3": "QQYHRLPLS", "log10 Kd (nM) by replicate": "1.47 1.41 1.63", "mean, log10 nM": "1.50", "empty controls": "2 of 9 (3.37)"}
{"CDR-L1": "KSSQSVLYSYRNKNSVA", "CDR-L2": "WASTRES", "CDR-L3": "QQYHRGPLS", "log10 Kd (nM) by replicate": "5.28 ND ND", "mean, log10 nM": "5.28", "empty controls": "1 of 9 (4.36)"}
{"CDR-L1": "KSNQSVLYESRNKNFVA", "CDR-L2": "WAITRES", "CDR-L3": "QQYHRLPLS", "log10 Kd (nM) by replicate": "ND ND ND", "mean, log10 nM": "ND", "empty controls": "2 of 9 (4.42)"}
{"CDR-L1": "KSSQSVLYESKNKNSVA", "CDR-L2": "WARTRES", "CDR-L3": "QQSHRLPLS", "log10 Kd (nM) by replicate": "1.88 2.26 1.60", "mean, log10 nM": "1.91", "empty controls": "2 of 9 (3.33)"}
{"CDR-L1": "KSSQSVLYESNNKNSVN", "CDR-L2": "WARTRES", "CDR-L3": "QQYHRLPLS", "log10 Kd (nM) by replicate": "ND 3.07 ND", "mean, log10 nM": "3.07", "empty controls": "3 of 9 (3.59)"}
{"CDR-L1": "WSSQSVLYEPANKNSVA", "CDR-L2": "WASTRES", "CDR-L3": "QQYHRLPLS", "log10 Kd (nM) by replicate": "2.62 3.15 2.67", "mean, log10 nM": "2.81", "empty controls": "0 of 9"}
{"CDR-L1": "KSSQPVTYESRNKNSVA", "CDR-L2": "WAYTRES", "CDR-L3": "QQYHRLPLS", "log10 Kd (nM) by replicate": "1.23 1.50 0.89", "mean, log10 nM": "1.21", "empty controls": "1 of 9 (3.14)"}
{"CDR-L1": "KSSASVLMESRNKNSVA", "CDR-L2": "WASTRES", "CDR-L3": "QQYHRLPLM", "log10 Kd (nM) by replicate": "2.12 1.97 2.49", "mean, log10 nM": "2.19", "empty controls": "2 of 9 (5.49)"}
{"CDR-L1": "KSSQSVLYESRNKNSVA", "CDR-L2": "IATTRES", "CDR-L3": "QQYHRLPLS", "log10 Kd (nM) by replicate": "3.52 ND ND", "mean, log10 nM": "3.52", "empty controls": "2 of 9 (4.58)"}
{"CDR-L1": "KSSQSVLYESRNKNSVA", "CDR-L2": "CASTRES", "CDR-L3": "QQTHRLPLS", "log10 Kd (nM) by replicate": "ND 4.05 ND", "mean, log10 nM": "4.05", "empty controls": "4 of 9 (4.54)"}

The opening 2 entries, copied out:

CDR-L1,CDR-L2,CDR-L3,log10 Kd (nM) by replicate,"mean, log10 nM",empty controls
WSSQSVLYEQRNKNSVA,WASTRES,QQYHRLPLS,1.75 1.52 2.53,1.93,1 of 9 (4.88)
KSSLSVLYESRLKNSVA,WASTREF,QQYHRLPLS,3.02 2.68 3.00,2.90,3 of 9 (4.58)

Values reported by Engelhart et al. 2022, doi:10.1038/s41597-022-01779-4 (FLAb copy).